Values of other authors, collected in patent US7629129B1, “Hair follicle bulb as a biodosimeter” (dated 2009).

Sequences of proteins named here, by UniProt entry; tags and fusion partners are left off. A change or cut given only in a name is not applied to a line headed by its entry.
UniProt P04798: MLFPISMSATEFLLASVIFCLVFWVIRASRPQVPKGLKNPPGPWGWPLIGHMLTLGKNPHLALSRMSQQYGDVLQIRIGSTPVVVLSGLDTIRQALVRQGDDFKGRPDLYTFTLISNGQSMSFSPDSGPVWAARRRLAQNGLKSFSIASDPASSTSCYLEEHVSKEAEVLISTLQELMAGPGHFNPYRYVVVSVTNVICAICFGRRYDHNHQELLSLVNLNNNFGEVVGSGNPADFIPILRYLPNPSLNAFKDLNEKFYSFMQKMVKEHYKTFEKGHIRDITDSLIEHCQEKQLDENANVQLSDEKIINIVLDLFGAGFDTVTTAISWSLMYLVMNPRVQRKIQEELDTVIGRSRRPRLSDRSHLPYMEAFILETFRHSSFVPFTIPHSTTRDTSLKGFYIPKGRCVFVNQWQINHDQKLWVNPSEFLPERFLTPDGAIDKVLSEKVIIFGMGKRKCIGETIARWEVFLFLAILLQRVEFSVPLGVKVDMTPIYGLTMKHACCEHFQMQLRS

Assays:
[1] = target: CYP1A1 (Homo sapiens, UniProt P04798); conditions: cell culture
[2] = system: ovarian carcinoma cells; conditions: cell culture
[3] = system: GDNF; conditions: rats, sub-chronic doses
[4] = system: ALDH; conditions: cell culture
[5] = system: GST; conditions: cell culture
[6] = system: NQO I; conditions: cell culture

Compound: CCC1(c2ccccc2)C(=O)NC(=O)NC1=O
- CYP1A1 activity [1]: increase CYP1A1 activity (cell culture)

Compound: CCOP(=S)(OCC)Oc1cc(C)nc(C(C)C)n1
- estrogenic activity [2]: OP pesticide diazinon demonstrated estrogenic

Compound: c1ccc(C2(N3CCCCC3)CCCCC2)cc1
- GDNF mRNA expression (rat brain) [3]: GDNF mRNA expression increased in rats

Compound: methylcholanthrene
- induction of ALDH [4]: induction of ALDH (cell culture)
- induction of GST [5]: induction of GST (cell culture)
- induction of NQO I [6]: induction of NQO I (cell culture)
- CYP1A1 activity [1]: increase CYP1A1 activity (cell culture)
